## Ab-14 light chain CDR variants: yeast mating affinities

Binding partner: SARS-CoV-2 spike HR2 peptide, sequence PDVDLGDISGINAS.

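AAYL50 was designed without a model: most single CDR substitutions and a random sample of double and triple ones. The assay is AlphaSeq: two haploid yeast populations carry antibody and antigen on their surface. Pairs that bind mate more often; barcode pairs of the diploids are counted by sequencing. A regression on co-assayed BCL2-family reference pairs converts the normalised counts of each replicate to an apparent Kd. Each pool was mated in three replicate cultures.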

Parent scFv Ab-14: VH joined to VL by a (GGGGS)3 linker. Changes lie in the light chain CDRs alone.
VH: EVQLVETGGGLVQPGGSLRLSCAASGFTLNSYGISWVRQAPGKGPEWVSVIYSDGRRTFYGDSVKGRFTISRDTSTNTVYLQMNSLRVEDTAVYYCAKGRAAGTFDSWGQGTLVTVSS
VL: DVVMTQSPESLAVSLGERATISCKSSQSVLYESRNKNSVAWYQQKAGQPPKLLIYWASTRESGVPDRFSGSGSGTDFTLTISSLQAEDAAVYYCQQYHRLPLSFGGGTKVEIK

Positions count from residue 1 of the parent VL; V29K puts K in place of V. All variants listed here change A57 of the VL, counted from its first residue. Affinities are written as log10 Kd with Kd in nM; a lower number is a better binder. A mean of the replicates is given; it leaves out those without a signal. An entry "ND" has no value in the source: the pair was not observed among the diploids in that replicate. This suggests poor binding but is not conclusive. Three control strains display no target. For library AAYL50, 18% of the pairings with them gave a signal, with a median of 4.19 and one signal in twenty below 2.99, so weak values seen in few replicates may be background.

Variant V29K A57P Q96D gave ND, 4.27, ND. For A57H S62P, the assay gave 3.23, 2.27, ND (mean 2.75). With N37D A57H R60E the result was ND, 3.72, ND. Variant E32G A57G L102H gave ND, ND, ND. Variant A40T A57G Y97Q showed 3.98, ND, 3.15 (mean 3.57). For V29D A57P S58A, the assay gave ND, ND, ND. For Q27T A57Q Q95L, the assay gave ND, ND, 3.51.

Variant W56P A57Y S58K gave ND, ND, ND. Variant V29A A57R E61Q showed ND, ND, 3.00. Variant V39S A57L P101C showed ND, ND, ND. Variant Y31F A57I R99H gave 3.83, 2.88, 4.09 (mean 3.60). Variant A40M A57Y gave ND, ND, ND. With S28P A57L T59M the result was 3.82, ND, ND. Variant S38M V39S A57Q showed ND, ND, 3.69.

Variant N35G A57E P101F gave ND, ND, ND. Variant Y31S A57C L102P showed ND, ND, ND. Variant W56M A57Y Q95P showed 3.29, ND, ND. Variant S25I A57W P101A gave ND, 2.90, ND. With S33K A57H the result was ND, ND, ND. For R34K A57C, the assay gave 3.57, 3.10, 3.19 (mean 3.29). Variant A40W A57S R99T showed ND, 4.26, ND.

For A57F E61N P101S, the assay gave ND, 4.58, ND. Variant L30M A57G T59P showed ND, ND, ND. With R34T V39W A57E the result was 4.07, ND, ND. Variant A40M A57T S58W gave ND, ND, ND. Variant S28D A57M Q95D showed ND, 3.41, ND. For A57F T59V E61F, the assay gave 4.89, ND, 5.56 (mean 5.23). With Q27M A57E R99Q the result was 1.57, 1.45, 1.83 (mean 1.62).

Variant A57T showed 0.90, 1.07, 1.07 (mean 1.01). For Q27K A57K L100N, the assay gave 2.81, ND, ND. Variant S33F A57N L100R gave ND, ND, ND. Variant N37V A57P S62D gave 5.58, ND, ND. Variant S25P V39Q A57N gave 5.08, 4.40, ND (mean 4.74). With A57D L102T S103W the result was 1.12, 1.04, 1.21 (mean 1.12). For R34E A40M A57R, the assay gave ND, ND, ND.

Variant W56Q A57L S103A gave 0.40, 0.72, 0.61 (mean 0.57). For K24M A57D H98T, the assay gave ND, 3.19, ND. Variant N35I A57H R99I showed ND, ND, ND. For S33K A57S Y97E, the assay gave ND, 3.29, ND. Variant N37W A57L E61K showed ND, ND, ND. Variant A57F Q95C gave ND, ND, ND. Variant N37Q A57L S62C gave ND, 3.47, ND.

With S33D A40D A57N the result was 2.75, ND, ND. Variant S25M A57R H98N gave 1.30, 1.57, 1.53 (mean 1.47). Variant E32T A57G R99V gave 1.57, 1.72, 1.50 (mean 1.60). Variant N37G A57E S103E showed ND, ND, ND. With A40E A57F Q95E the result was ND, 4.85, ND.

The last 3 entries again:

{"changes": "E32T A57G R99V", "log10 Kd (nM) by replicate": "1.57, 1.72, 1.50", "log10 Kd (nM), mean": "1.60"}
{"changes": "N37G A57E S103E", "log10 Kd (nM) by replicate": "ND, ND, ND", "log10 Kd (nM), mean": "ND"}
{"changes": "A40E A57F Q95E", "log10 Kd (nM) by replicate": "ND, 4.85, ND", "log10 Kd (nM), mean": "4.85"}

Data: MIT Lincoln Laboratory AlphaSeq set, Engelhart et al. 2022, doi:10.1038/s41597-022-01779-4, as distributed in FLAb.